Permeability data for macrocyclic peptides

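Lipid, pH, incubation time, direction and concentration are not recorded in the data file. Other peptides of the study may be missing here. Entries at the database's floor value (log10 P of -10) are not listed.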

PAMPA measures passive passage through an artificial lipid membrane.
Caco-2: transport across a human colon carcinoma cell monolayer.
Values are log10 P with P in cm/s, so -5 is more permeable than -7.
A value with < or ≤ is an upper limit.
"n/a" marks a cell with nothing listed here.

SMILES | PAMPA (log10 cm/s) | Caco-2 (log10 cm/s)
CCC[C@@H]1NC(=O)[C@H](CC(C)C)N(C)C(=O)[C@H](C(C)C)N(C)C(=O)[C@H](CC(C)C)N(C)C(=O)[C@H](CC(C)C)N(C)C(=O)[C@@H](C)NC(=O)[C@H](CCC(N)=O)NC(=O)[C@H](CC(C)C)N(C)C(=O)[C@H](C(C)C)NC(=O)[C@H](CC(C)C)N(C)C(=O)CN(C)C1=O | n/a | -6.29
CCC[C@@H]1NC(=O)[C@H](CC(C)C)N(C)C(=O)[C@H](CC(C)C)N(C)C(=O)[C@H](CC(C)C)N(C)C(=O)[C@H](CC(C)C)N(C)C(=O)[C@@H](C)NC(=O)[C@H](CCC(N)=O)NC(=O)[C@H](CC(C)C)N(C)C(=O)[C@H](C(C)C)NC(=O)[C@H](CC(C)C)N(C)C(=O)CN(C)C1=O | < -8.40 | -5.99

Values of Lee et al. 2021, doi:10.1021/acs.jmedchem.1c00211, as listed in CycPeptMPDB.